Results from ChEMBL document CHEMBL6134873, “Identification of Novel Cyclobutane-Based Derivatives as Potent Acetyl-CoA Carboxylase Allosteric Inhibitors for Nonalcoholic Steatohepatitis Drug Discovery” (J Med Chem, 2025).
The source made the active and inactive calls. The rule behind the calls is not given here.

Experiments:
Format in all cases: functional, organism-based
Rattus norvegicus [1] = assay: Anti-NASH activity in Sprague-Dawley rat model of DEN-induced liver fibrosis assessed as reduction in fibrotic collagen area at 3 to 10 mg/kg, po qd treated for 4 weeks by sirus red staining based analysis; conditions: dose 3-10 mg/kg
Rattus norvegicus [2] = assay: Anti-NASH activity in Sprague-Dawley rat model of DEN-induced liver fibrosis assessed as reduction in alpha-SMA expression at 3 to 10 mg/kg, po qd treated for 4 weeks by IHC analysis; conditions: dose 3-10 mg/kg
Rattus norvegicus [3] = assay: Anti-NASH activity in Sprague-Dawley rat model of DEN-induced liver fibrosis assessed as reversal of DEN-induced TBIL level administered orally once daily treated for 4 weeks by ELISA; conditions: dose 3-10 mg/kg, route po
Rattus norvegicus [4] = assay: Anti-NASH activity in Sprague-Dawley rat model of DEN-induced liver fibrosis assessed as reversal of DEN-induced GGT level administered orally once daily treated for 4 weeks by ELISA; conditions: dose 3-10 mg/kg, route po
Rattus norvegicus [5] = assay: Anti-NASH activity in Sprague-Dawley rat model of DEN-induced liver fibrosis assessed as reversal of DEN-induced ALT level administered orally once daily treated for 4 weeks by ELISA; conditions: dose 3-10 mg/kg, route po
Rattus norvegicus [6] = assay: Anti-NASH activity in Sprague-Dawley rat model of DEN-induced liver fibrosis assessed as reduction in DEN-induced pathological change at 3 to 10 mg/kg, po qd treated for 4 weeks by sirus red staining based analysis; conditions: dose 3-10 mg/kg
Rattus norvegicus [7] = assay: Anti-NASH activity in Sprague-Dawley rat model of DEN-induced liver fibrosis assessed as reduction in alpha-SMA mRNA expression at 3 to 10 mg/kg, po qd treated for 4 weeks by qPCR analysis; conditions: dose 3-10 mg/kg
Rattus norvegicus [8] = assay: Anti-NASH activity in Sprague-Dawley rat model of DEN-induced liver fibrosis assessed as reversal of DEN-induced AST level administered orally once daily treated for 4 weeks by ELISA; conditions: dose 3-10 mg/kg, route po
Rattus norvegicus [9] = assay: Anti-NASH activity in Sprague-Dawley rat model of DEN-induced liver fibrosis assessed as reduction in Col1A1 mRNA expression at 3 to 10 mg/kg, po qd treated for 4 weeks by qPCR analysis; conditions: dose 3-10 mg/kg

SMILES: COc1ccccc1[C@H](Cn1c(=O)n([C@H]2C[C@@](C)(C(=O)O)C2)c(=O)c2c(C)c(-c3ncco3)sc21)OC1CCOCC1
- Activity (Rattus norvegicus [1]): Active
- Activity (Rattus norvegicus [2]): Active
- Activity (Rattus norvegicus [3]): Dose-dependent-effect
- Activity (Rattus norvegicus [4]): Dose-dependent-effect
- Activity (Rattus norvegicus [5]): Dose-dependent-effect
- Activity (Rattus norvegicus [6]): Active
- Activity (Rattus norvegicus [7]): Active; Activity Better Than Nd-630
- Activity (Rattus norvegicus [8]): Dose-dependent-effect
- Activity (Rattus norvegicus [9]): Active; Activity Better Than Nd-630
